From US8568699B2, “Soft anticholinergic zwitterions” (priority 2005, dated 2013)

The chains behind the UniProt entries cited, without tags or fusion partners. Residues count along the entry.
UniProt H0W1Z3, 1-590: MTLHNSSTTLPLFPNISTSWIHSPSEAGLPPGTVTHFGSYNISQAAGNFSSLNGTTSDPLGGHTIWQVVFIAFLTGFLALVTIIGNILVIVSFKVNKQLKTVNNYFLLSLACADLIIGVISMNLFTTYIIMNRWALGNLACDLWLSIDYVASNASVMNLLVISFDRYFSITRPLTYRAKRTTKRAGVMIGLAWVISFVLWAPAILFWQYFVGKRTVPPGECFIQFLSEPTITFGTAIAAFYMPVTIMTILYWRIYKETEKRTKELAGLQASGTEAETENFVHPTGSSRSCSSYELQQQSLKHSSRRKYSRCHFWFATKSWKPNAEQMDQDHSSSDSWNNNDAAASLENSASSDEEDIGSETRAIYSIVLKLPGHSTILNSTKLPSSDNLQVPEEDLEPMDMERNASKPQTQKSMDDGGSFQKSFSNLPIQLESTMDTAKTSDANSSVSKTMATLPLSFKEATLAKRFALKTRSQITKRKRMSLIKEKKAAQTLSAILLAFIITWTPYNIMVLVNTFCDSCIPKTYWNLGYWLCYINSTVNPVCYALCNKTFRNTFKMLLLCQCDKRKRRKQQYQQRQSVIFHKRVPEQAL

Biological target: M3 muscarinic receptors (guinea pig ileum) (Cavia porcellus, UniProt H0W1Z3)
Assay: cell-based

In the case of `C[N+]1(C)CCC(OC(=O)C(O)(c2ccccc2)C2CCCC2)C1` (mixture of isomers) [glycopyrrolate, glycopyrronium bromide], the Kb is reported as 2.69 nM.
